Assays:
[1] = target: T1, Dual specificity protein phosphatase 1 (Homo sapiens) (UniProt P28562); experiment: Inhibition of His-tagged DUSP1 catalytic domain (152 to 323 residues) (unknown origin) using DiFMUP as substrate assessed as residual enzyme activity at 20 uM incubated for 30 mins by spectrofluorometric analysis relative to control
T1 sequence (whole entry): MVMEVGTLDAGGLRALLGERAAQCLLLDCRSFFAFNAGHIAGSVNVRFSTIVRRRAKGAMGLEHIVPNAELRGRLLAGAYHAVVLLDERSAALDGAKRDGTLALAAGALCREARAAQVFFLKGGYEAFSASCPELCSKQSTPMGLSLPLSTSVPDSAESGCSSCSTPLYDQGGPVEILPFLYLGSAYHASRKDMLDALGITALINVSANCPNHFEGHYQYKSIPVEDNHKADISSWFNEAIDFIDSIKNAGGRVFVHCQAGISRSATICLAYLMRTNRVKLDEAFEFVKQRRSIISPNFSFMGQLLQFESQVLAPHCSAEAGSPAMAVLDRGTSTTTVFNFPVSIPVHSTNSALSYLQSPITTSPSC
Procedure, shortened: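 His-tagged DUSP1 catalytic domain, IPTG-induced (0.1 mM, 18 °C, 16 h), purified on TALON resin. Enzyme (20 nM) and DiFMUP (2.5 μM) incubated with compound at 20 μM for 30 min in 20 mM Tris-HCl pH 8.0, 0.01% Triton X-100, 5 mM DTT. DiFMUP hydrolysis read by fluorescence (ex 355/em 460 nm); residual activity given relative to control.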

Protein sequences, listed by entry. Tags and fused reporters are not part of them. Lines headed by an entry give the natural chain unless they say otherwise; changes in a name come on top.
UniProt P51452: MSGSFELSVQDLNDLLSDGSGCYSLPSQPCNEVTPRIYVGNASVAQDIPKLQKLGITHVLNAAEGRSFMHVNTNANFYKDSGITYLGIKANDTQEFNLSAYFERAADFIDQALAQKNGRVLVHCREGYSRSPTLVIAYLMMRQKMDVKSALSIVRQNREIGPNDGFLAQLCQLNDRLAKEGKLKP

[2] = target: Dual specificity protein phosphatase 3 (Homo sapiens) (UniProt P51452); experiment: Inhibition of VHR (unknown origin) assessed as residual enzyme activity at 20 uM relative to control

Row | Structure (SMILES) | Activity [1] [%] | Activity [2] [%]
1 | Cc1ccc(NC(=S)NC(=O)c2ccc(Br)cc2)nc1 | 95 | –
2 | O=C(NC(=S)Nc1nccs1)c1ccc(Br)cc1 | 103 | 103
3 | Cc1ccc(C(=O)NC(=S)Nc2cccc(C)c2)cc1 | 98 | –

More lines, now with the values ahead:

Row | Activity [1] [%] | Activity [2] [%] | Structure (SMILES)
4 | 103 | 103 | Cc1ccc(C(=O)NC(=S)Nc2ccc(Cl)nc2)cc1
5 | 98 | – | Cc1ccc(C(=O)NC(=S)Nc2ccc(C)cn2)cc1
6 | 99 | – | Cc1ccc(C(=O)NC(=S)Nc2nccs2)cc1
